Target: T1, HDAC10 (Homo sapiens, UniProt Q969S8)
T1 sequence (Q969S8 1-669): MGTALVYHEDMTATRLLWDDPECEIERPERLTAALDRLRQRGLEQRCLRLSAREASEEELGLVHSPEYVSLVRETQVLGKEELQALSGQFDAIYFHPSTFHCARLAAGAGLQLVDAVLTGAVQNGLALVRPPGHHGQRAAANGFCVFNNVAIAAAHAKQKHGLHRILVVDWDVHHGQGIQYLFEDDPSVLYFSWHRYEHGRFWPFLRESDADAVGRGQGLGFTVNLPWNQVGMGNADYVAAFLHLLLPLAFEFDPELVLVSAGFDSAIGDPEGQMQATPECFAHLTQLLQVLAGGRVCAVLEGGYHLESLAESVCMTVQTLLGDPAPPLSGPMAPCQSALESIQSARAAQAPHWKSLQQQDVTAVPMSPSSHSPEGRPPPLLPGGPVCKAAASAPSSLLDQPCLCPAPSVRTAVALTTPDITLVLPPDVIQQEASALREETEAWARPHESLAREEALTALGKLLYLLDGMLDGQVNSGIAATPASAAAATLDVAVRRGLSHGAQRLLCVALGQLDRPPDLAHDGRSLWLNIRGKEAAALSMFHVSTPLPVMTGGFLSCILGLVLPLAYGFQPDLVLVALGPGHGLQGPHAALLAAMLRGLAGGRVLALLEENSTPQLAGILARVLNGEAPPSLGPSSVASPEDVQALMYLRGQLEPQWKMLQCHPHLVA
Details: read-out: IC50 HDAC10; Table 4, Class IIb

Structure (SMILES): O=C(CCCCCCC(=O)Nc1ccccc1)NO [SAHA, reference compound]
- IC50: 0.17 ± 0.01 µM
